Results published in patent publication US20170056496A1 (Sanofi, priority 2008, published 2017).

Settings: cyclophosphamide alone, IV day 11 and 15 (total injected dose 354.8 mg/kg)

SMILES: O=P1(N(CCCl)CCCl)NCCCO1 (stereo not shown) [cyclophosphamide]
- highest nontoxic dose (HNTD): 177.4 mg/kg/inj
